Experiments:
[1] = test system: Aphids (Aphis gossypii Glover); test: Aphid leaf-dip mortality test (cucumber leaves, 24 hours); conditions: mortality after 24 hours
[2] = test system: American Cockroach (Periplaneta americana L.); test: American cockroach spray mortality test (24 hours); conditions: mortality after 24 hours
[3] = test system: Flour Beetle (Tribolium confusum DuVal); test: Flour beetle mortality test on treated wheat grain (one week); conditions: mortality after one week exposure, 10080 min

CN(SC(Cl)(Cl)C(Cl)Cl)C(=O)Oc1cccc2c1OC(C)(C)C2
Aphids, mortality, 0.64 ppm ([1]; 0.64 ppm): 97%
Aphids, mortality, 4 ppm ([1]; 4 ppm): 98%
Cockroach, mortality, 16 ppm ([2]; 16 ppm): 7%
Cockroach, mortality, 100 ppm ([2]; 100 ppm): 67%
Flour Beetle, mortality, 5 ppm [3]: 100%
